# scFv variants of Ab-14 (light chain) against a SARS-CoV-2 spike peptide

Target: peptide PDVDLGDISGINAS, taken from heptad repeat 2 (HR2) of SARS-CoV-2 spike.

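The parent was found by panning a naive human phage display library on the peptide. The variants were designed computationally from a first round of random CDR variants and then made and measured. Several design methods are mixed in this list. The scFvs were displayed on barcoded MATa yeast, the peptide on MATalpha yeast. Pairs that bind mate more often; barcode pairs of the diploids are counted by sequencing. The ratio of observed to expected reads was calibrated, replicate by replicate, on BCL2-family standards whose Kd was known from biolayer interferometry. Mating was done six times.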

Parent: Ab-14, a human scFv built as VH, the linker GGGGSGGGGSGGGGS, VL. Only the CDRs of the light chain vary.
VH: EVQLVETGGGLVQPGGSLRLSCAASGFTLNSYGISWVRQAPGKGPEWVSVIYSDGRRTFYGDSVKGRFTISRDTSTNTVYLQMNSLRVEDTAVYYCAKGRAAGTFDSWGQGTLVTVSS
VL: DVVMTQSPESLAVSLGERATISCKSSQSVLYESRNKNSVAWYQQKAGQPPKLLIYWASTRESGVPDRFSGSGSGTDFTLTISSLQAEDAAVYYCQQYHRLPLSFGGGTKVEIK

Variants are written as CDR1, CDR2 and CDR3 of the light chain (limits as in the source). Parent: KSSQSVLYESRNKNSVA, WASTRES, QQYHRLPLS.
Each Kd is an estimate from the mating assay, the geometric mean of the replicates in which the pair was seen; lower is stronger.
"no signal" marks a missing value. The strain was present, yet no cells mated with the target were sequenced in any replicate, which points to weak or no binding.
Of ten entries with the parent sequence, four were seen in most replicates (averages 2.2 nM to 240 nM), three in one and three in none, so single entries are noisy.

apparent Kd | detected | CDR-L1 | CDR-L2 | CDR-L3
4.9 nM | 6/6 | KLRQVTGYESYNKNSVA | QMSTRAS | QDYHRLPLS
18 nM | 6/6 | TISQITSLFSQNINNVA | EVSTRLN | QQYDRLPLS
1.5 nM | 6/6 | KSMQSQEYESRNKNSVA | HASTRED | QQYHRLPLS
210 nM | 2/6 | KLSQSTLYDSYNKNSVA | WASTRES | QQYHRLPLS
780 pM | 6/6 | KLSQSVEYQSRDKNAVA | DAQTRES | QQYHRLPLS
140 nM | 1/6 | KLIQPVLYESRNKNSVA | WDSTREE | QQYHRLPLS
23 nM | 6/6 | KWSQSVLEESRTKNSVA | TASTRES | QQQHRLPLS
no signal | 0/6 | IVSQLMLWGLHAKNSIA | EAQTRIN | QQYDRLPLF
7.2 nM | 6/6 | KSSQSVLYESRNKNSVA | DASTRES | QQYHGLPLS
13 nM | 6/6 | KLRQLTHIESFNKNNVA | EMTTREE | QSYDRLPLS
2.1 nM | 6/6 | KSSQSVLQESRNQNSVA | DADTRES | QQYHRLPLS
58 nM | 4/6 | DWSQSVLYESHNKNSVA | WASTRES | QQYHRLPLS
no signal | 0/6 | KSSQSFLYELRNKNSVA | SASTRES | QSYHRLILS
7.4 nM | 6/6 | KITQLVMETSKNKNNVA | EVSTVPV | QQYHRLPLS
14 nM | 6/6 | TLHANIEYGGIMWSSIA | GNVQRAN | QQYARLPLS
1.7 nM | 6/6 | QTTAFYQHGHDQNQAMA | DVTMRDQ | QQYSRLPLS
1.0 nM | 6/6 | KLSSSWLMEQRNVNSVA | QASQRLL | QQYHRLPLS
4.1 nM | 6/6 | HISPSFMVESKLRNSVA | QTETRVE | QQYDRLPLS
1.9 nM | 6/6 | KLSQSFLYESRMKNSVA | NASTRES | QQYHRLPLS
1.5 nM | 6/6 | KLMQSVLYESRNKNSVA | HASTRED | QQYHQLPLS
52 nM | 1/6 | KSSQSVLYECRNKNSVA | WASTRYS | QQYHRLPLS
4.6 nM | 6/6 | KVSQSHLYESRNKNSVA | QASQRES | QQYHRLPLS
53 nM | 1/6 | QSSQSVGYEVNNKNSVA | WASTRES | QQYVRLPLS
24 nM | 6/6 | KSSQSVLYDSRNKNSVA | HASTRES | QQYHRLPLS
2.4 nM | 6/6 | KVSQSFEYEDRNKNSVA | QASQRCS | QQYHRLPLS
1.2 nM | 6/6 | KISISYLYESRNKNSVA | AASTRES | QQYHRLPLS
20 nM | 6/6 | KFSQSQLYESRNKNSVA | NASTRMS | QQYHRLPLS
no signal | 0/6 | KLSISYLFESLEKQSIA | ENSTREK | QHYHRLPLS
8.5 nM | 6/6 | KSSQSVEYESRNKNSVA | GASTRTS | AQYSRLPLS
1.6 nM | 6/6 | KVQQSELGLSRMKNSVA | NASKRES | QQYHRLPLS
1.3 nM | 6/6 | KISMLQRYESQAKNSIA | EMSRREE | QQYHRLPLS
no signal | 0/6 | KSSQSVLPEMRNKNSVA | WASTRES | QQYHRLPAS
450 pM | 6/6 | YVSQSELYESRNKNSVA | NASTRES | QQYHRLPLS
11 nM | 3/6 | HISANMWMQGSQWDAVA | QGEIANN | QQYARLPLS
540 nM | 1/6 | KVLQSVLYESRNKNSVA | HASTRED | QLYHRLPLS
950 pM | 6/6 | ISSQSVLMESRNKNSVA | DASTRES | QQYHRLPLS
490 pM | 6/6 | KLSQSMLYESRNKMSVA | NASTRES | QQYHRLPLS
500 pM | 6/6 | KLGQSVAMTSRNKNNVA | DLNMRER | QQYHRLPLS
1.8 nM | 6/6 | KVSQSMLYESRNKNSVA | DASQRES | QQYHRLPLS
510 pM | 6/6 | KTEGSWLYESRNKNSVA | NASERES | QQYHRLPLS
2.8 nM | 6/6 | CLMQSVLYESRNKNSVA | HASLRED | QQYHRLPLS
5.5 nM | 6/6 | KSSQSVLYESRNKNSVA | KASVRES | QQYHRLPLS
6.0 nM | 6/6 | NFSQMVLTGSTLRNSVA | HASTRCE | QQYHRLPLI
1.9 nM | 6/6 | HIGGTMTWESKAKNSVA | QSNTRAE | QQYHRLPLS
1.7 nM | 6/6 | KSSISYLGESRNENSVA | EASTREQ | QQYHRLPLS
no signal | 0/6 | KMSQSVLYESRNKNSIA | WASTRES | PQYHRLPLS
120 nM | 6/6 | KLLQTVMNGRTNRNNVA | HMTMRED | QQYFRLPLS
4.3 nM | 6/6 | MINMEVGIEDMKWQSVA | SAHVRAF | QQYGRLPFS
10 nM | 6/6 | SISGFMKSLSAHNNNVA | DMTNREN | QQYDRLPLS
1.0 nM | 6/6 | KSAYSELYESANKNSVA | SANTRSS | QQYHRLPLS
3.9 nM | 6/6 | MVNGIMDHLSKNTNNVA | ETSTRGS | QQYDRLPLS
1.8 nM | 6/6 | KVQMKNLYEDRMKNSVA | NASLRES | QQYHRLPLS
1.1 nM | 6/6 | LLSQQNLYESRNKNSVA | NASQRLS | QQYHRLPLS
92 nM | 3/6 | KSSISYPYESRNKNSVA | AASTRES | QQYHRLPLS
1.9 nM | 6/6 | QIYQAMHTLMQAKNNVA | DVTERNN | QQYFRLPLS
10 nM | 6/6 | HMSMLTMMGMRHRNSVA | QMTMREN | QQYDRLPLV
5.0 nM | 6/6 | KIQHQHVGNWKTANNIA | QGDQRCS | QSYDRLPLS
770 pM | 6/6 | KLSQSYLYEQRNKNSVA | SASTRES | QQYHRLPLS
900 pM | 6/6 | KFSQSVLYESRTKNSVA | NASTRES | QQYHRLPLS
11 nM | 6/6 | QFDMHIPYQGEQNASIA | GTTNRLT | QQYFKLPLS
950 pM | 6/6 | KLSQSHLYESRNKNAVA | NASTRES | QQYHRLPLS
650 pM | 6/6 | KLSQSHLYESRNKNSVA | NASQREQ | QQYHRLPLS

Top 5 of the variants detected in all replicates, tightest first:

CDR-L1,CDR-L2,CDR-L3,apparent Kd,detected
YVSQSELYESRNKNSVA,NASTRES,QQYHRLPLS,450 pM,6/6
KLSQSMLYESRNKMSVA,NASTRES,QQYHRLPLS,490 pM,6/6
KLGQSVAMTSRNKNNVA,DLNMRER,QQYHRLPLS,500 pM,6/6
KTEGSWLYESRNKNSVA,NASERES,QQYHRLPLS,510 pM,6/6
KLSQSHLYESRNKNSVA,NASQREQ,QQYHRLPLS,650 pM,6/6

The authors' rule: three or more of the six replicates give a measured affinity, fewer mean a poor binder.
The range of this assay differs from that of the first round, and the authors advise against merging the two.
As a blank, each scFv also met three strains without target: over all light chain designs, 4% of these pairings were detected, typically at 430 nM and seldom below 38 nM.

The measurements come from Li et al. 2023 (doi:10.1038/s41467-023-39022-2) through the FLAb antibody collection.